Source: patent US9241991B2, “Agents, compositions, and methods for treating pruritus and related skin conditions” (The Brigham and Women's Hospital, Inc., priority 2010, dated 2016)

Chains of the proteins cited; added tags and fusions are not shown. Lines headed by an entry give the natural chain unless they say otherwise; changes in a name come on top.
UniProt P21729: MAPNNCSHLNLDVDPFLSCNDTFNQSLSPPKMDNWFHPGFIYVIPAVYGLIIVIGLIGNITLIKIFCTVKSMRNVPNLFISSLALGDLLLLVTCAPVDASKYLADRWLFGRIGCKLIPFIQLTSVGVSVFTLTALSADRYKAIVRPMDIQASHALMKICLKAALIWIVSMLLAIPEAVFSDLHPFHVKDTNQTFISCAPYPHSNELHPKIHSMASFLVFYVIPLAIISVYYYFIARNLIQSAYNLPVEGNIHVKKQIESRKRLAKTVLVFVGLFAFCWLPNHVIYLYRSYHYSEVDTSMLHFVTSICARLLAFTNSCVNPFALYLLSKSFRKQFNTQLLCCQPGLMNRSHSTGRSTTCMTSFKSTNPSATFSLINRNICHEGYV
UniProt P07492: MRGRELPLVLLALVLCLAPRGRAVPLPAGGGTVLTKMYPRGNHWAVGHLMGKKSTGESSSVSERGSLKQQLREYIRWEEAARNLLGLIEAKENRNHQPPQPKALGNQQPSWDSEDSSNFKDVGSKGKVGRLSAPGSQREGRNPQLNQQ

Molecular target: T1, GRPR (Mus musculus, UniProt P21729)
T1 construct: from tissue; host or cells: spinal cord of live mice (intrathecal injection)
Test: Scratching after intrathecal GRP18-27 in Tlr3-/- and WT mice
Type: in vivo
Conditions: exogenous
Description: We injected pruritic agents intradermally in the nape of the neck (50 μl) or cheek (10 μl), respectively. We purchased histamine, compound 48/80, trypsin, chloroquine, serotonin, TLR3 agonist polyribo-inosinic/cytidylic acid (PIC), and complete Freund's adjuvant (CFA) from Sigma-Aldrich, histamine H1 receptor agonist histamine-trifluoromethyl-toluidine (HTMT), capsaicin, and the H4R-selective agonist 4-methylhistamine (4-MeHA) from Tocris, and endothelin-1 (ET-1) from ALEXIS Biochemicals. We also purchased the PAR2 agonist H-Ser-Leu-Ile-Gly-Arg-Leu-NH2 (SLIGRL-NH2) and gastrin-releasing peptide fragment (GRP18-27) from Bachem, and TRIF peptide inhibitor and control peptide from Invivogen. Antisense oligodeoxynucleotides (AS-ODN; 5′-AACAATTGCTTCAAGTCC-3′; SEQ ID NO:1) targeting TLR3 and mismatch ODN (MM-ODN; 5′-ACTACTACACTAGACTAC-3′; SEQ ID NO:2) were synthesized by Invitrogen according to the published sequences (2). AS-ODN (10 μg) or MM-ODN were intrathecally injected once a day for 5 days. To target DRG and spinal cord cells, TRIF inhibitor (10 μl) were delivered intrathecally into cerebral spinal fluid via a lumbar puncture. A successful spinal puncture was evidenced by a brisk tail-flick after the needle entry into subarachnoid space (3). Most reagents were dissolved in sterile saline. Capsaicin was dissolved in 10% DMSO.

GRP18-27: gastrin-releasing peptide fragment from Bachem (SSSVSERGSL; Neuromedin-C; UniProt P07492 58-67, looked up, fragment)
itch deficits in Tlr3-/- mice: able to rescue
scratching in Tlr3-/- and WT mice: elicited comparable scratching
